Antibody variant affinities, Ab-14 heavy chain, assay B

Source: Li et al. 2023 (doi:10.1038/s41467-023-39022-2), MIT Lincoln Laboratory and A-Alpha Bio; data file from the FLAb repository.

All variants were tested on one target, the spike HR2 peptide PDVDLGDISGINAS (SARS-CoV-2).

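The parent was found by panning a naive human phage display library on the peptide. This is the validation round: designs drawn from the data on random variants, tested in the same kind of assay. Group labels follow the data file (En: ensemble of fine-tuned language models; HC: hill climbing; Gen: genetic algorithm; Gibbs: Gibbs sampling; a sequence that several methods proposed may carry one label only). Affinity was read by AlphaSeq, a pooled yeast mating assay with surface-displayed partners. Pairs that bind mate more often; barcode pairs of the diploids are counted by sequencing. The ratio of observed to expected reads was calibrated, replicate by replicate, on BCL2-family standards whose Kd was known from biolayer interferometry. Mating was done six times.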

Ab-14 is the parent antibody, in scFv form: VH, then three GGGGS repeats, then VL. The light chain is unchanged in all variants.
VH: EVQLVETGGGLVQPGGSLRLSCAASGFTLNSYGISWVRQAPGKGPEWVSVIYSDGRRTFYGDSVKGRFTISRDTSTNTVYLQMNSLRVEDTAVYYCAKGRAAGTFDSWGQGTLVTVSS
VL: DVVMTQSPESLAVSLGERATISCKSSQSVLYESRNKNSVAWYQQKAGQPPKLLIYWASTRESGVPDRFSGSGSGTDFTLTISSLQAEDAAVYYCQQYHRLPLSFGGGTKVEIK

Each variant is given by its three heavy chain CDRs, as the data file delimits them; those of the parent are GFTLNSYGIS, VIYSDGRRTFYGDSVK, GRAAGTFDS. This list holds designs with more than six substitutions. Numbers give log10(Kd / nM), so 0 is 1 nM and 3 is 1 µM. Smaller is tighter. The mean shown is taken over the replicates in which the pair was detected. An entry "no signal" has no value in the source: the pair was not observed among the diploids in any replicate. This suggests poor binding but is not conclusive. The parent sequence was in this pool as ten entries: three were never detected, three once, and four in most replicates, with averages from 0.34 to 2.37.

With GFDLNEYGIS | VIYADGRRSFYADSVK | GQLAGTFDM [En_HC] the result was -0.37 (6 of 6 replicates). For GFDLNEYGIS | VIYADGRRTFYADSVK | GEIAGTFNV [En_HC], the assay gave -0.83 (6 of 6 replicates). The variant GFNLDEEGIS | VIYADGIRTAYQDTVK | GQNVANFNV [En_Gibbs] gave no signal (0 of 6 replicates). The variant GFDLNEYGIS | VIYADGMRTAYADNVK | GTVAGTFDL [En_Gen] gave -0.82 (6 of 6 replicates). For GFDVDEYGIS | VIYADGKRSMYANKVK | GGIGGMFFV [En_Gibbs], the assay gave 2.36 (1 of 6 replicates).

The variant GYDLNEYGIS | VIYADGRRAAYIDDVK | GNVNDHVLV [En_Gibbs] gave no signal (0 of 6 replicates). For GFDLNEYGIS | VIYADGSRTFYSDSVK | GNNAGTFDS [En_HC], the assay gave -0.13 (6 of 6 replicates). For GFDLNEYGIS | VIYADGRRTFYADSVK | GNVAGTFIQ [En_HC], the assay gave 1.95 (2 of 6 replicates). With GFDLDEYGIS | VIYADGKRTAYSDSVK | GETAGTFDI [En_Gen] the result was -0.12 (6 of 6 replicates). The variant GFTLDEYGIS | VIYADGQRTAYIDDVK | GQMGGNGYG [En_Gibbs] gave no signal (0 of 6 replicates).

With GFSLDEYGIS | VIYADGQRKHYADSVK | GLIDGYYFA [En_Gibbs] the result was no signal (0 of 6 replicates). The variant GFDLNEYGIS | VIYADGRRTFYADSVK | GKNAGTFSV [En_HC] showed -0.33 (6 of 6 replicates). For GFDLNEYGIS | VIYADGMRTYYADSVK | GNTAGTFDV [En_Gen], the assay gave -0.21 (6 of 6 replicates). The variant GFDLNEYGIS | VIYADGMRTFYADSVK | GQLAGTFDE [En_HC] gave -0.67 (6 of 6 replicates). For GFDLNEYGIS | VIYADGRRTFYADSVK | GENAGTFDQ [En_HC], the assay gave -0.71 (6 of 6 replicates).

The variant GFGLGEYGIS | VIYADGRRTFYKDDVK | GHGIVAGVD [En_Gibbs] showed no signal (0 of 6 replicates). For GKDLDEQGIS | VIYADGTRTAAANTVK | GEIAGTLKV [En_Gibbs], the assay gave no signal (0 of 6 replicates). With GFEIQEYGIS | VIYADGRRTAYAENVK | GTMGGTFST [En_Gibbs] the result was 0.76 (6 of 6 replicates). The variant GFDIEEYGVS | VIYADGQRTMYTPNVK | GNITGLADI [En_Gibbs] gave no signal (0 of 6 replicates). The variant GFDLNEYGIS | VIYADGVRTAYSDSVK | GENAGTFDM [En_Gen] gave 0.14 (6 of 6 replicates).

The variant GFDLNEYGIS | VIYADGRRQAVVQNVK | GKINVVDSV [En_Gibbs] showed no signal (0 of 6 replicates). The variant GFDLNEYGIS | VIYADGQRTFYADSVK | GNVAGTFDV [En_Gen] gave -0.67 (6 of 6 replicates). The variant GFDLNEYGIS | VIYADGMRTAYANSVK | GETAGTFDQ [En_Gen] gave 0.07 (6 of 6 replicates). For GFDLEEYGIS | VIYADGMRNAYTANVK | GGKSGDFFM [En_Gibbs], the assay gave no signal (0 of 6 replicates). The variant GFDLNEYGIS | VIYADGVRTFYSDSVK | GNVAGTFDK [En_HC] showed -0.72 (6 of 6 replicates).

The variant GFDLEEYGIS | VIYADGMRTAYADSVK | GNEAGTFDV [En_Gen] gave -0.21 (6 of 6 replicates). The variant GFDLNEYGIS | VIYADGSRTAYSDSVK | GTNAGTFDV [En_Gen] showed -0.37 (6 of 6 replicates). For GNDLSEYGIS | VIYADGIRTNYSQNVK | GTLAGTFTQ [En_Gibbs], the assay gave 3.30 (2 of 6 replicates). The variant GFDLNEYGIS | VIYADGMRTQYIDSVK | GEVAGTFDL [En_HC] showed 0.70 (5 of 6 replicates). With DFNLNEYGIS | VIYADGQRASYDDKVK | GQISGTFDT [En_Gibbs] the result was 0.79 (6 of 6 replicates).

For GFDLNEYGIS | VIYADGMRTVYADSVK | GNVAGTFDL [En_Gen], the assay gave -0.58 (6 of 6 replicates). For GFDLNEYGIS | VIYADGRRTFYLDSVK | GQLAGTFDM [En_HC], the assay gave -0.64 (6 of 6 replicates). The variant GFDLNEYGIS | VIYADGRRTAYADSVK | GEAAGTFDL [En_HC] gave -0.65 (6 of 6 replicates). For GFDLNEYGIS | VIYADGLRKSYADSVK | NGLRSFFFV [En_Gibbs], the assay gave no signal (0 of 6 replicates). For GFDLEDYGIS | VIYADGMRTAYADNVK | GEVAGTFDV [En_Gen], the assay gave -0.61 (6 of 6 replicates).

The variant GKDIQEYGIS | VIYADGERVAYTNSVK | GTQSGSNIN [En_Gibbs] showed no signal (0 of 6 replicates). With GFDLNEYGIS | VIYADGRRTFYSDSVK | GQTAGTFDL [En_HC] the result was -0.33 (6 of 6 replicates). With GFDLEEYGIS | VIYADGRRTAYADKVK | GENAGTFDI [En_HC] the result was -0.42 (6 of 6 replicates). The variant GFDLNEYGIS | VIYADGKRTFYADSVK | GENAGTFDV [En_Gen] showed -0.58 (6 of 6 replicates). With GFDLNEYGIS | VIYADGMRTGYADSVK | GQNAGTFDF [En_HC] the result was 0.78 (4 of 6 replicates).

With GDDLDEVGIS | VIYADGVRNQYIQSVK | GHNAGTFDY [En_Gibbs] the result was 1.23 (4 of 6 replicates). With GYDLQEYGVS | VIYADGRRSVYINSVK | GGSAGTFVF [En_Gibbs] the result was 0.83 (5 of 6 replicates). With GFSLNEYGIS | VIYADGMRTYYTESVK | GNINDQLFV [En_Gibbs] the result was no signal (0 of 6 replicates). The variant GFDLNEYGIS | VIYADGRRTSYADSVK | GEAAGTFNV [En_HC] gave 1.02 (6 of 6 replicates).

The last 3 entries again:

For GYDLQEYGVS | VIYADGRRSVYINSVK | GGSAGTFVF [En_Gibbs], the assay gave 0.83 (5 of 6 replicates).
For GFSLNEYGIS | VIYADGMRTYYTESVK | GNINDQLFV [En_Gibbs], the assay gave no signal (0 of 6 replicates).
For GFDLNEYGIS | VIYADGRRTSYADSVK | GEAAGTFNV [En_HC], the assay gave 1.02 (6 of 6 replicates).

The range of this assay differs from that of the first round, and the authors advise against merging the two. Nonspecific signal, from three strains lacking the peptide, appeared in 1% of pairings of all heavy chain designs, centred on 2.08 (5% of these signals below 0.84); values are not corrected for it. In the paper, a design with two or fewer of six values counts as a poor binder.